In patent publication US10570401B2, “Compositions and method for destabilizing, altering, and dispersing biofilms” (priority 2013, dated 2020):

Test system: S. gordonii
Conditions: low vs high arginine
[1] = downregulated, average across the locus

## N=C(N)NCCC[C@H](N)C(=O)O [L-arginine]
downregulated
  Fold Change, SGO_2098 RpsD, ribosomal protein 54: −12.5
[1]
  Fold Change, SGO_0966-0978 Hsa, secondary secretion and glycosylation systems: −4.9
  Fold Change, SGO_1591-593 ArcABC arginine catabolism: −3.5
  Fold Change, SGO_1686-1700 Fab/acc locus, fatty acid biosynthesis: −11.4
  Fold Change, SGO_2015-2028 Receptor polysaccharide biosynthesis: −8.6
upregulated, average fold change across the locus
  Fold Change, SGO_1566-1569 ArgDBJC, arginine biosynthesis: 339.6
